For 13 compounds, IC50 results are on record in ChEMBL document CHEMBL1139188, “Identification of diamino chromone-2-carboxamides as MCHr1 antagonists with minimal hERG channel activity” (Bioorg Med Chem Lett, 2007).

Sequences of proteins named here, by UniProt entry; tags and fusion partners are left off. A change or cut given only in a name is not applied to a line headed by its entry.
UniProt Q99705: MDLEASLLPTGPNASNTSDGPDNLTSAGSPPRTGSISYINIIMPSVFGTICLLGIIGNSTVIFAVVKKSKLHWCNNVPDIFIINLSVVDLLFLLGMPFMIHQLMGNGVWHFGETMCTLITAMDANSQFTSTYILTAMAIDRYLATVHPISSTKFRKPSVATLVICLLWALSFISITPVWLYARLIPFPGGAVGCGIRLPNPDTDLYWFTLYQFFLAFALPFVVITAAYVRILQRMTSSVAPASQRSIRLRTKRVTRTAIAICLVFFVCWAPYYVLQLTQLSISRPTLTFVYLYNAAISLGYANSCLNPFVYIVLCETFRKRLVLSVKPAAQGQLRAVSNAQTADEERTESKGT

Molecules are shown by their SMILES. pIC50: −log10 of the molar value.

For test [1], the target named is T1, Melanin-concentrating hormone receptor 1 (Homo sapiens, UniProt Q99705). The experiment in a line: Displacement of [125I]MCH from MCHR1 expressed in IMR32 cells. It is filed as cell-based, IMR-32.
Test [2] has as its target T1, Melanin-concentrating hormone receptor 1. Briefly: Antagonist activity at MCHR1 assessed as inhibition of MCH-mediated calcium release in IMR32 cells. It is filed as functional, cell-based, IMR-32.

On to `COC(C)(C)CCOc1ccc(CN2CCC(NC(=O)c3cc(=O)c4ccc(F)cc4o3)CC2)cc1`, for which the pIC50 in test [1] was 6.78; in test [2], 5.76.

Take `COc1cc(C(=O)NCCN2CCCC2)ccc1CN1CCC(NC(=O)c2cc(=O)c3ccc(F)cc3o2)CC1`: the negative logarithm of the IC50 (pIC50) in test [1] was 7.59; in test [2], 6.57. `O=C(NCCN1CCCC1)c1ccc(CN2CCC(NC(=O)c3cc(=O)c4ccc(F)cc4o3)CC2)c(Cl)c1`: the pIC50 was 8.70 in test [1] and 6.87 in test [2]. The corresponding values for `O=C(CCN1CCCCC1)Nc1ccc(CN2CCC(NC(=O)c3cc(=O)c4ccc(F)cc4o3)CC2)cc1F` are 7.64 and 6.92. The corresponding values for `CC(C)CO/N=C/COc1ccc(CN2CCC(NC(=O)c3cc(=O)c4ccc(F)cc4o3)CC2)cc1F` are 7.82 and 5.70. For the compound `CO/N=C/COc1ccc(CN2CCC(NC(=O)c3cc(=O)c4ccc(F)cc4o3)CC2)cc1F`, the pIC50 in test [1] was 7.51; in test [2], 6.32. For `O=C(NCCN1CCC(F)(F)CC1)c1ccc(CN2CCC(NC(=O)c3cc(=O)c4ccc(F)cc4o3)CC2)cc1`, the pIC50 is 7.07 in test [1] and 5.53 in test [2]. For the compound `O=C(NC1CCN(Cc2ccc(OCCN3CCOCC3)c(F)c2)CC1)c1cc(=O)c2ccc(F)cc2o1`, in test [1], the pIC50 is below 5.70. `O=C(NC1CCN(Cc2ccc(OCCN3CCCC3)c(F)c2)CC1)c1cc(=O)c2ccc(F)cc2o1`: the pIC50 in test [1] is 5.82; in test [2], below 5.00. For the compound `O=C(NC1CCN(Cc2ccc(OCCCN3C(=O)CSC3=O)c(F)c2)CC1)c1cc(=O)c2ccc(F)cc2o1`, the pIC50 was 8.40 in test [1] and 6.26 in test [2]. Taken in the same sequence, the figures for `O=C(NC1CCN(Cc2ccc(OCCCN3CCCCC3)c(F)c2)CC1)c1cc(=O)c2ccc(F)cc2o1` were 8.52 and 7.07. Turning to `O=C(NC1CCN(Cc2ccc(OCC(F)(F)F)c(F)c2)CC1)c1cc(=O)c2ccc(F)cc2o1`, the pIC50 in test [1] is 7.19.

With `O=C(NC1CCN(Cc2ccc(C(=O)NCCN3CCCC3)c(F)c2)CC1)c1cc(=O)c2ccc(F)cc2o1`, the pIC50 is 7.54 in test [1] and 6.38 in test [2].
